In US7348421B1, “Methods for production of p-hydroxybenzoate in bacteria” (North Carolina State University, priority 2000, dated 2008):

Tested on: DOT-T1E-PhoA5 mutant
Experiment: Halo-inhibition test with antibiotic disks on minimal medium
Type: cell-based, Pseudomonas putida
Settings: for tolerance/sensitivity to antibiotic: mutant, Halo-inhibition test; for size of the inhibition halo: strain PhoA5, 6-mm disks, µg per disk as, minimal medium

| Compound | tolerance/sensitivity to antibiotic | size of the inhibition halo [mm] |
| --- | --- | --- |
| CC[C@H]1OC(=O)[C@H](C)[C@@H](O[C@H]2C[C@@](C)(OC)[C@@H](O)[C@H](C)O2)[C@H](C)[C@@H](O[C@@H]2O[C@H](C)C[C@H](N(C)C)[C@H]2O)[C@](C)(O)C[C@@H](C)C(=O)[C@H](C)[C@@H](O)[C@]1(C)O [erythromycin] | tolerant | – |
| CC1(C)S[C@@H]2[C@H](NC(=O)[C@H](N)c3ccccc3)C(=O)N2[C@H]1C(=O)O [ampicillin] | tolerant | – |
| CO/N=C(\C(=O)N[C@@H]1C(=O)N2C(C(=O)O)=C(COC(C)=O)CS[C@H]12)c1csc(N)n1 [CTX, cefotaxime] | sensitive | 30 |
| CCn1cc(C(=O)O)c(=O)c2ccc(C)nc21 [NA, nalidixic acid] | equally sensitive | 15 |
| C[C@@H](O)[C@H]1C(=O)N2C(C(=O)O)=C(SCCN=CN)C[C@H]12 [IPM, imipenen] | sensitive | 45 |
| O=C(O)c1cn(C2CC2)c2cc(N3CCNCC3)c(F)cc2c1=O [CIP, ciprofloxacine] | sensitive | 40 |
| O=C(N[C@H](CO)[C@H](O)c1ccc([N+](=O)[O-])cc1)C(Cl)Cl [CAM, chloramphenicol] | tolerant | – |
| CCN1CCN(C(=O)N[C@@H](C(=O)N[C@@H]2C(=O)N3[C@@H]2SC(C)(C)[C@@H]3C(=O)O)c2ccccc2)C(=O)C1=O [PIP, piperacillin] | equally sensitive | 19 |
| gentamycin [GM] | equally sensitive | 16 |
| CCn1cc(C(=O)O)c(=O)c2cc(F)c(N3CCNCC3)cc21 [NOR, norfloxacine] | sensitive | 30 |
| CN[C@H](CC(C)C)C(=O)N[C@H]1C(=O)N[C@@H](CC(N)=O)C(=O)N[C@H]2C(=O)N[C@H]3C(=O)N[C@H](C(=O)N[C@H](C(=O)O)c4cc(O)cc(O)c4-c4cc3ccc4O)[C@H](O)c3ccc(c(Cl)c3)Oc3cc2cc(c3O[C@@H]2O[C@H](CO)[C@@H](O)[C@H](O)[C@H]2O[C@H]2C[C@](C)(N)[C@H](O)[C@H](C)O2)Oc2ccc(cc2Cl)[C@H]1O [vancomycin] | tolerant | – |
| [H]/N=C(/N)N[C@H]1[C@H](O)[C@@H](O)[C@H](O[C@@H]2O[C@@H](C)[C@](O)(C=O)[C@H]2O[C@@H]2O[C@@H](CO)[C@H](O)[C@@H](O)[C@@H]2NC)[C@@H](N/C(N)=N\[H])[C@@H]1O [SM, streptomycin] | equally sensitive | – |
